By UniProt entry, the sequences of proteins in these tests, tags left out. Residues count along the entry.
UniProt Q8NI77, 1-467: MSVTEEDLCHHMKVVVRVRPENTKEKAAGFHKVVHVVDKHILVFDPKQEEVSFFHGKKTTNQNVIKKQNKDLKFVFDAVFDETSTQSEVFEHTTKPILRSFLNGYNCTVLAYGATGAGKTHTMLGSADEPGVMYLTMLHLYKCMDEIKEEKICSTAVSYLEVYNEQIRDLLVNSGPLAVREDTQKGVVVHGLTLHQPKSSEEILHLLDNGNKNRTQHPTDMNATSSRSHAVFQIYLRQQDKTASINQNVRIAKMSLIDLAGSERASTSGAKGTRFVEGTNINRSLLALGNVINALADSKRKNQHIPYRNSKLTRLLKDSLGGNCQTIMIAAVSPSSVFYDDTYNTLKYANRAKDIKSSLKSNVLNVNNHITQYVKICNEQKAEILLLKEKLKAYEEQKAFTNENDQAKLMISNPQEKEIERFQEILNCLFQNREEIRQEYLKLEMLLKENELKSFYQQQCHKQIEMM

In patent US11236069B2, “KIF18A inhibitors” (AMGEN INC., priority 2018, dated 2022):

Target: Recombinant human KIF18A (1-467 His-tagged) protein (Homo sapiens (Human), UniProt Q8NI77)
Experiment: KIF18A Enzyme Assay: microtubule-stimulated ATPase activity (ADP-Glo)
Details: read-out: KIF18A ATPase IC50; 30 nM KIF18A, 30 μg/mL pig microtubules, ATP at Km 75 μM, ADP-Glo luminescence

Row | SMILES | IC50 [nM]
1 | Cc1cc(NC(=O)c2ccc(S(=O)(=O)CCO)cc2N2CCC3(CC2)CC3)nc(N2CCC(F)(F)CC2)n1 [Example 12, N-(2-(4,4-difluoropiperidin-1-yl)-6-methylpyrimidin-4-yl)-4-((2-hydroxyethyl)sulfonyl)-2-(6-azaspiro[2.5]octan-6-yl)benzamide] | 76
2 | Cc1cc(NC(=O)c2ccc(S(=O)(=O)C(C)(C)CO)cc2N2CCC3(CC2)CC3)nc(N2CCC(F)(F)CC2)n1 [Example 14, N-(2-(4,4-Difluoropiperidin-1-yl)-6-methylpyrimidin-4-yl)-4-((1-hydroxy-2-methylpropan-2-yl)sulfonyl)-2-(6-azaspiro[2.5]octan-6-yl)benzamide] | 122
3 | Cc1cc(NC(=O)c2ccc(C(N)=O)cc2N2CCC3(CC2)CC3)nc(N2CCC(F)(F)CC2)n1 [Example 20] | 119
